Experiments:
E. coli = format: cell-based, Escherichia coli; conditions: strain BW25113, M9 media with the named supplement(s), aerobic; MIC of 3-HP versus M9 control without supplement
Procedure: For MIC evaluations, the final results are expressed in chemical agent concentrations determined by analysis of the stock solution by HPLC (i.e., see Subsection Mb).
The minimum inhibitory concentration (MIC) was determined aerobically in a 96 well-plate format. […] Media supplements were added according to levels reported in the Supplements Table, where specified. Overnight cultures of strains were grown in triplicate in 5 mL LB (with antibiotic where appropriate). A 1% (v/v) inoculum was introduced into a 5 ml culture of M9 minimal media.

E. coli Mach1-T1 = assay: Minimum inhibitory concentration (MIC) of 3-HP, microaerobic, 96 well-plate, MOPS minimal media; format: cell-based, Escherichia coli; conditions: Mach1-T1 with feedback resistant aroH mutant plasmid
Procedure: The minimum inhibitory concentration (MIC) using commercially obtained 3-HP (TCI America, Portland, Oreg. USA, see 3-HP preparation herein) was determined microaerobically in a 96 well-plate format. Overnight cultures of strains were grown in 5 ml LB (with antibiotic where appropriate). A 1 v/v % was used to inoculate a 15 ml conical tube filled to the top with MOPS minimal media and capped. After the cells reached mid exponential phase, the culture was diluted to an OD600 of 0.200. The cells were further diluted 1:20 and a 10 ul aliquot was used to inoculate each well (˜10^4 cells per well). The plate was arranged to measure the growth of variable strains or growth conditions in increasing 3-HP concentrations, 0-70 g/L, in 5 g/L increments, as well as either media supplemented with optimal supplement concentrations which were determined to be: 2.4 mM tyrosine (Sigma), 3.3 mM phenylalanine (Sigma), 1 mM tryptophan (Sigma), 0.2 mM p-hydroxybenzoic acid hydrazide (MP Biomedicals), 0.2 mM p-aminobenzoic acid (MP Biomedicals), 0.2 mM 2,3-dihydroxybenzoic acid (MP Biomedicals), 0.4 mM shikimic acid (Sigma), 2 mM pyridoxine hydrochloride (Sigma), 35 uM homoserine (Acros), 45 uM homocysteine thiolactone hydrochloride (MP Biomedicals), 0.5 mM oxobutanoate (Fluka), 5 mM threonine (Sigma). […]
The minimum inhibitory concentration (MIC) was determined microaerobically in a 96 well-plate format. […]

Compound	% Increase Over Control (E. coli)	fold increase in MIC of 3-HP, cells comprising the aroH mutant vs control (E. coli Mach1-T1)
NCCCCNCCCN [Spermidine (C)]	45%	–
O=C(O)CCO [3-HP, 3-hydroxypropionic acid]	–	1.4 times
NCCCCCN [Cadaverine (C)]	27%	–
NCCCCN [Putrescine(C)]	9%	–

— patent publication US9388419B2, “Methods for producing 3-hydroxypropionic acid and other products” (The Regents of the University of Colorado, a body corporate, priority 2009, dated 2016)
